Consider one substance from article PMC10789052.

In the experiment the target is FLAG-ARMC5 R315W mutant (human). Kind of experiment: affinity purification with mass spectrometry; HEK293 cells transfected with FLAG-tagged ARMC5 or ARMC5 R315W for 24 h; anti-FLAG precipitates analysed by LC-MS/MS; compared with FLAG empty vector; spectral counts normalised to the bait.

On to “POLR2A, the largest subunit of RNA polymerase II (endogenous in HEK293) (from UniProt P24928 1-1970) (natural protein)”, for which the fold lower binding capacity than WT ARMC5 came to 4 fold.
